Assay results: publication PMC2603589

Biological target: GST-plakoglobin (UniProt P14923)
Assay: pull-down; 10 pmols of GST-plakoglobin incubated with 500 µg of whole-cell extracts from MEFs PS (−/−) transfected with the PS1 forms; glutathione-Sepharose; Western blot with anti-PS1 (aa 1-65); three experiments scanned and quantified with respect to the input

fold binding relative to pPS1: 10 fold
Substance: non-processed presenilin 1 (Myc/His-tagged full-length human PS1) (from UniProt P49768 1-467) (natural protein; other documents disagree on this pair)
